## AlphaSeq binding of Ab-91 heavy chain variants to a spike HR2 peptide

Reference: Engelhart et al. 2022, doi:10.1038/s41597-022-01779-4. File: FLAb, binding data.

Target peptide (SARS-CoV-2 spike, HR2 region): PDVDLGDISGINAS

The variants keep the light chain, the linker and the frameworks of Ab-91 (scFv order VL, a (GGGGS)3 linker, VH).
VL: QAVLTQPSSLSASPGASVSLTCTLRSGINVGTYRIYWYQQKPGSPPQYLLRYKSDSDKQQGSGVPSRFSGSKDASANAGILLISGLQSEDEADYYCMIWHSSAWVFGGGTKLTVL
VH: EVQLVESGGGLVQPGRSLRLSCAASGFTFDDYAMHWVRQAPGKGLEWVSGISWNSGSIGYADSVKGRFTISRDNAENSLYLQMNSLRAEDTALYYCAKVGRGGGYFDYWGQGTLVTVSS

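Library AAYL51 holds single substitutions and randomly drawn double and triple substitutions in the CDRs. In AlphaSeq, yeast of one mating type display the scFv and yeast of the other type display the target. Pairs that bind mate more often; barcode pairs of the diploids are counted by sequencing. Read counts were normalised to the haploid input and turned into Kd by a linear fit to BCL2-family pairs of known affinity, for each replicate. The assay was run in three technical replicates.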

Variants are written as CDR1, CDR2 and CDR3 of the heavy chain (limits as in the source). Parent: GFTFDDYAMH, GISWNSGSIGYADSVK, VGRGGGYFDY. This list gathers variants with a substitution at D31 (VH, numbered from residue 1). The read-out is the apparent dissociation constant on a log10 scale (nM): the lower, the stronger. Averages over replicates are reported, and they cover detected replicates only. "ND" marks a missing value. The strain was present, yet no cells mated with the target were sequenced in that replicate, which points to weak or no binding. Entries are sorted by rising average, undetected variants last. Background: pairings of library AAYL51 with three empty control strains gave a value in 21% of cases (median 4.54, 5th percentile 3.26). Values in that range, when seen in few replicates, are hard to tell from nonspecific mating. For reference, the parent read 1.86 as the reference entry and 0.88 as a member of this library.

The variant GFTFDMYAMH | GISWNSGSIGYADSVK | VGRGGGYFDY gave 0.81, 0.81, 0.14 (mean 0.59). With GFTFDFYAMH | GISWNSGSIGYADSVL | VGRGGGYFDQ the result was 0.96, 0.83, 0.43 (mean 0.74). With GFTFAHYAMH | GISANSGSIGYADSVK | VGRGGGYFDY the result was 1.31, 1.42, 0.76 (mean 1.16). With GFTFDKYAMH | GISWNSGSIGYADSVK | VGRGGGYFDY the result was 1.57, 1.28, 0.75 (mean 1.20). For GFTFDWYAMH | GISWNSGSIGYADSVK | VGRGGHIFDY, the assay gave 1.53, 1.33, 1.39 (mean 1.42). With GFTFDIYAMH | GISWNSGSIGYADSVR | VGRGGGYFDY the result was 1.94, 2.55, 1.20 (mean 1.90). The variant GFTFDYYAMH | GISWNSGSIGYADSVA | VGNGGGYFDY showed 1.94, 1.15, 2.83 (mean 1.98). The variant GFTFDAYAMH | GISWNSGSIGYADSVM | RGRGGGYFDY showed 2.28, 2.51, 1.83 (mean 2.21). The variant GFTFDHYAMH | GISWNSGSHGYADSQK | VGRGGGYFDY showed ND, 3.17, ND.

With GFTFDSYAMH | GASWNSGSAGYADSVK | VGRGGGYFDY the result was ND, ND, 3.44. The variant GFTFDGYAMH | GISWNSGSIGYAESVK | VGRGGGKFDY gave 3.90, 3.20, 3.25 (mean 3.45). For GFTFDVYAMH | GISWNSGSIGYCDSVK | VGRPGGYFDY, the assay gave 4.18, 5.54, ND (mean 4.86). The variant GHTFDSYAMH | GISWNSGSIGYADSVK | VGRGGGYFDY gave 4.31, 4.57, 5.72 (mean 4.86). The variant GFTFDNYAMG | GISWNSGSINYADSVK | VGRGGGYFDY showed 5.26, ND, 4.72 (mean 4.99). The variant GFTFDQYAMH | GYSWNSGSIGYADSVK | VGRGGGYFDY showed ND, 4.99, ND. The variant GFTFDRYRMH | GPSWNSGSIGYADSVK | VGRGGGYFDY gave 4.92, 5.30, ND (mean 5.11). For GFTFDNYAMH | GISWNRGSIGYQDSVK | VGRGGGYFDY, the assay gave ND, 5.52, 5.01 (mean 5.26). For GFTFDGYAMH | GISWNSGSICYADSVK | VGEGGGYFDY, the assay gave ND, 5.40, ND.

For GFTFDLYAMH | GISWNSGSIRYADSVK | VGRGGGYFDY, the assay gave 5.48, ND, ND. The variant GFTFDIYMMH | GILWNSGSIGYADSVK | VGRGGGYFDY showed 5.43, 5.56, ND (mean 5.50). The variant GFTYDRYAMG | GISWNSGSIGYADSVK | VGRGGGYFDY gave 5.51, ND, ND. With GFTFDKYAMH | GISWNSGSIGYADSHI | VGRGGGYFDY the result was 5.07, 6.58, 4.99 (mean 5.54). With GFTFDNYAMH | GISWNSGSIGYADMVC | VGRGGGYFDY the result was ND, 6.29, ND. The variant GFTFDVYAMH | GISWFSGSIGYADSVK | VGRGGAYFDY gave ND, ND, ND. With AFTFDAYAFH | GISWNSGSIGYADSVK | VGRGGGYFDY the result was ND, ND, ND. With GFTFDGYAMH | RISWNSGSIGYATSVK | VGRGGGYFDY the result was ND, ND, ND. With GFTFDNYYMI | GISWNSGSIGYADSVK | VGRGGGYFDY the result was ND, ND, ND.

The variant GFTSDCYAMH | GDSWNSGSIGYADSVK | VGRGGGYFDY showed ND, ND, ND. The variant GFTFDYYAMH | GISWNSGSIGYADSVK | VDRGGGYFDY showed ND, ND, ND. The variant GFTFDRYAMG | GISWNSGSIGYADSVK | VGRGGIYFDY gave ND, ND, ND. The variant GFTFDSYAMH | GISWNSGSIGYADSVK | VGRGGSYNDY gave ND, ND, ND. The variant GFTFDTYMMH | GISWNSGSIGYADLVK | VGRGGGYFDY showed ND, ND, ND. The variant GFVFDSYAMH | GISWNLGSIGYADSVK | VGRGGGYFDY showed ND, ND, ND. The variant GFTFDLYPMH | GISWNSGSIGYADEVK | VGRGGGYFDY gave ND, ND, ND. The variant GFTFDFYAHH | GISWLSGSIGYADSVK | VGRGGGYFDY gave ND, ND, ND. The variant GFTFDHYAMH | GISWNSGSIGYADCVK | PGRGGGYFDY showed ND, ND, ND.

The variant GFTFDEYAMH | GISWNSGSIGYADSKK | VGRGGGYTDY gave ND, ND, ND. The variant GFTFDPYAMH | GISWNSGSIGYANSVD | VGRGGGYFDY gave ND, ND, ND. With GFTFDMYAMI | GISWNSGSIGYADSVC | VGRGGGYFDY the result was ND, ND, ND. The variant GFTFDCYEMH | GISWNSASIGYADSVK | VGRGGGYFDY gave ND, ND, ND. The variant GFTFDTKAMH | GISWNSGSIGYADSVK | VGRHGGYFDY showed ND, ND, ND. For GFTFDGYAMA | GISWLSGSIGYADSVK | VGRGGGYFDY, the assay gave ND, ND, ND. With GFTFDVYAMH | DISWNSGSIGYADSVK | VGRGGGYIDY the result was ND, ND, ND. With GFTFDKYAMH | GISWNSGSIGYADSVK | VGRGGGRRDY the result was ND, ND, ND. The variant GFTFDYYAMH | FISWNSGSIGYADSVK | VGRGGGYFDY gave ND, ND, ND.

For GFTFDEYAMM | GVSWNSGSIGYADSVK | VGRGGGYFDY, the assay gave ND, ND, ND.

Excerpt, the final 7 entries:

With GFTFDCYEMH | GISWNSASIGYADSVK | VGRGGGYFDY the result was ND, ND, ND.
With GFTFDTKAMH | GISWNSGSIGYADSVK | VGRHGGYFDY the result was ND, ND, ND.
With GFTFDGYAMA | GISWLSGSIGYADSVK | VGRGGGYFDY the result was ND, ND, ND.
With GFTFDVYAMH | DISWNSGSIGYADSVK | VGRGGGYIDY the result was ND, ND, ND.
With GFTFDKYAMH | GISWNSGSIGYADSVK | VGRGGGRRDY the result was ND, ND, ND.
With GFTFDYYAMH | FISWNSGSIGYADSVK | VGRGGGYFDY the result was ND, ND, ND.
With GFTFDEYAMM | GVSWNSGSIGYADSVK | VGRGGGYFDY the result was ND, ND, ND.